These are literature values, as cited in patent US20060211980A1 (priority 2005, published 2006).

Each structure is given as a SMILES string.

For the data set the following is noted: basic pKa.

As for `Nc1nc(N)c(-c2ccccc2)s1` [amiphenazole], the pKa entry is given as “about 7”.
